Source: paper PMC3076939 (Biochemistry, 2011)

Chains of the proteins cited; added tags and fusions are not shown. Lines headed by an entry give the natural chain unless they say otherwise; changes in a name come on top.
UniProt P28843: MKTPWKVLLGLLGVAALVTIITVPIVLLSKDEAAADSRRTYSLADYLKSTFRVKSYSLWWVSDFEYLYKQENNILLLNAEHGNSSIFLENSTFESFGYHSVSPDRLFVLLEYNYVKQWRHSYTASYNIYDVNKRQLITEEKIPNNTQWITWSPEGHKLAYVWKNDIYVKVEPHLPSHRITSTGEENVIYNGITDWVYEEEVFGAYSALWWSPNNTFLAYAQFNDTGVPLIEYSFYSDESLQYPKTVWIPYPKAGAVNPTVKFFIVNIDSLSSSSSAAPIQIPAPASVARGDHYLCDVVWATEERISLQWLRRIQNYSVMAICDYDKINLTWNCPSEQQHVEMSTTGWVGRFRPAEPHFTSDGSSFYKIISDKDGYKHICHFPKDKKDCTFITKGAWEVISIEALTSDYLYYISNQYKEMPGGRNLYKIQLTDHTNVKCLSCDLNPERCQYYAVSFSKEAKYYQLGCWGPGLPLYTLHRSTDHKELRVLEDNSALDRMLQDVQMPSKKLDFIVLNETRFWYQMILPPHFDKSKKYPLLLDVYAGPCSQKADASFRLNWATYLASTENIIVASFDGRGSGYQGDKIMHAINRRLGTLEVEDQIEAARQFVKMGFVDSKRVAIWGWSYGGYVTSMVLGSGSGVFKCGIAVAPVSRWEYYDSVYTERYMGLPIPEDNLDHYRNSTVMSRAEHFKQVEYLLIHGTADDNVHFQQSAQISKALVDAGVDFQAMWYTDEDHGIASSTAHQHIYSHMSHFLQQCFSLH

Biological target: DPP4 (Mus musculus, UniProt P28843)
Assay type: biochemical

N#C[C@@H]1CCCN1C(=O)CNC12CC3CC(CC(O)(C3)C1)C2 [LAF-237, 1-[[(3-hydroxy-1-adamantyl)amino]acetyl]-2-cyano-(S)-pyrrolidine]
reduction of the production of PHI(3–27): > 100 fold
